PubChem BioAssay AID686979 (National Center for Advancing Translational Sciences (NCATS), 2013)
Values joined by “and” are separate entries in the source; they are usually repeats but may differ in a detail not shown here. Equal values may be shown once. Only a part is listed here, and it is no random draw. Inconclusive results are not listed. Where a structure was tested more than once in an assay, its records may differ in their call. Active and inactive are the calls of the source. Calls come from the whole dose curve; as a rule, active = well fitted inhibition curve with a large enough effect; inconclusive = small, poorly fitted or top-dose-only effect; inactive = flat fitted curve, though single readings scatter.

Assay: qHTS for Inhibitors of human tyrosyl-DNA phosphodiesterase 1 (TDP1): qHTS in cells in presence of CPT; note: nearly all actives have a fitted effect of over 55% in size
Conditions: chicken DT40 Tdp1-/-;hTDP1 cells + 20 nM CPT, ATP luminescence, 48 h; series mostly up to 46.2 µM; activity change, negative = growth inhibition: at the top concentration
% is set by controls: 0 for no effect and ±100 for the full control effect; potency is the fitted concentration of half-maximal effect.

SMILES | activity change, negative = growth inhibition | Potency
CN1CCC(=C2c3ccccc3CCc3sccc32)CC1 | inactive: -78.5% | 
Clc1ccc(N2CCN(Cc3c[nH]c4ncccc34)CC2)cc1 |  | inactive and active: 4.11 µM
CC[n+]1c(/C=C/Nc2ccccc2)oc2ccc(OC)cc21 |  | active: 9.2 µM
CC(C(O)c1ccc(O)cc1)N1CCC(Cc2ccccc2)CC1 (stereo not drawn) |  | active: 8.41 µM and active: 13 µM
CN(Cc1cnc2nc(N)nc(N)c2n1)c1ccc(C(=O)NC(CCC(=O)O)C(=O)O)cc1 (stereo not drawn) |  | active: 46.1 nM and active: 36.6 nM
COc1cc(NCCCCCCCN)c2ncccc2c1 |  | active: 20.6 µM
Nc1nccc(NCCSCc2ccccc2)n1 |  | active: 20.6 µM
CC[n+]1c(/C=C/N(C)c2ccccc2)oc2ccc(Cl)cc21 |  | active: 2.91 µM
CC(=O)C1=NN(c2ccccc2)C(c2ccc3c(c2)OCO3)N1c1ccc(N2CCOCC2)cc1 (stereo not drawn) |  | active: 23.1 µM
CN1CCN(C2=Nc3ccccc3Oc3ccc(Cl)cc32)CC1 |  | inactive
COc1ccc(Nc2nc(Nc3ccc(OC)cc3)nc(SC3=NCCS3)n2)cc1 |  | active: 23.1 µM
CC[n+]1c(/C=C/N(C)c2ccccc2)oc2ccccc21 |  | active: 0.731 µM
CCN(CC)CCCC(C)Nc1c2ccc(Cl)cc2nc2ccc(OC)cc12 (stereo not drawn) |  | active: 5.62 µM and active: 2.91 µM
